We go through 70 molecules from PubChem BioAssay AID504775 (Broad Institute, 2011).

Each structure is given as a SMILES string. The list shows a part of the results, in another mix than the full data. The source made the active and inactive calls.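 How the source made its calls: active means mean replicate activation of at least 60% and every replicate at or above 60%; inconclusive means mean or all-replicate condition met, but not both; inactive means mean below 60% and not all replicates reaching 60%.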

A short description of the test: enhancers of HDL lipid transfer via mSR-BI – ldlA[mSR-BI] CHO cells, DiI fluorescence, primary screen (AID 504775).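 Further: 0% = median plate neutral-control signal and 100% = twice that signal.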 The settings on record: DiI-HDL uptake fluorescence, 3 h, at 12.5 µM, active compounds read high, 100 = double the neutral-control signal. In a few lines:
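Material – SR-BI-overexpressing, LDLR-lacking CHO cells · Medium – BSA-supplemented, HEPES-buffered Ham's F12, pH 7.4 · Doses – single concentration · Times – compound with DiI-HDL co-incubation, 3 h at 37 °C · Measured by – bottom-read fluorescence, 550/595 nm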
As to `COc1cc(C(=O)NCC2(N3CCOCC3)CCCCC2)cc(OC)c1C`, the activation was inactive: -32.2%.
Consider `O=C(NCC1(N2CCOCC2)CCCCC1)c1cc(Br)ccc1Cl`, for which the activation was inactive: -6.52%.
For `COc1ccc(C(=O)NCC2(N3CCOCC3)CCCCC2)cc1OC` the value was inactive: 16.9%; for `CCOC(=O)N1CCC(Nc2ccc(C)cc2)CC1`, inactive: 10.4%; for `N/C(=N\O)c1c(N)no[n+]1[O-]`, inactive: 9.99%.
For `O=C(OC1CN2CCC1CC2)C1c2ccccc2C=Cc2ccccc21` (stereo not given) the value was inactive: 18.3%; for `N#Cc1ccc(C(=O)NCC2(N3CCCCC3)CCCCC2)cc1`, inactive: 11.9%.
As for `CC(C)(C)OC(=O)N1CCC(N(C(=O)c2ccccc2)c2ccc(Cl)cc2)CC1`, the figure is inactive: -2.77%; as for `CN(C)C1(CNC(=O)c2cccc(C#N)c2)CCCCC1`, inactive: 9.98%.
Turning to `Cc1cc(N(CCCl)CCCl)ccc1C=O`, the activation was inactive: -28.3%.
As for `CCCN1CCC(Nc2cc(OC)cc(OC)c2)CC1`, the figure is inactive: 14.7%; as for `c1ccc(CN2CCC(Nc3ccccc3)CC2)cc1`, inactive: -23.8%; as for `CC(=O)N(c1ccccc1)C1CCNCC1`, inactive: 14.8%.
As for `Fc1ccccc1NC1CCN(Cc2ccccc2)CC1`, the figure is inactive: 3.95%.
As for `Cc1ccc(C(=O)NCC2(N3CCCCC3)CCCCC2)o1`, the figure is inactive: 19.5%; as for `Cc1ccc(NC2(C#N)CCN(Cc3ccccc3)CC2)cc1`, inactive: 3.93%.
As to `CCN1CCC(Nc2cccc(F)c2)CC1`, the activation was inactive: -8.36%.
For `Cc1ccccc1NC1(C#N)CCN(Cc2ccccc2)CC1` the value was inactive: 19.1%.
As for `CN(C)c1ccc(C(=O)NCC2(N3CCCCC3)CCCCC2)cc1`, the figure is inactive: 2.96%; as for `Cn1c(=O)[nH]cc(N(CCCl)CCCl)c1=O`, inactive: 6.11%; as for `O=C(NCC1(N2CCCCC2)CCCCC1)c1ccco1`, inactive: 36.9%.
For `CN1CCC(Nc2ccc(F)c(Cl)c2)CC1`, the activation is inactive: 27.9%.
As for `CCOc1ncccc1C(=O)NCC1(N2CCOCC2)CCCCC1`, the figure is inactive: 0.98%; as for `O=C(O)C1(Nc2ccccc2)CCN(Cc2ccccc2)CC1`, inactive: 20.1%.
Take `CC(C)(C)OC(=O)N1CCC(Nc2ccccc2)CC1`: the activation is inactive: -1.28%.
As for `CCCOc1ccc(C(=O)NCC2(N(C)C)CCCCC2)cc1`, the figure is inactive: -8.44%; as for `COc1cc(OC)cc(C(=O)NCC2(N3CCOCC3)CCCCC2)c1`, inactive: -6.24%; as for `COc1cccc(C(=O)N(c2cc(C)cc(C)c2)C2CCN(C(=O)OC(C)(C)C)CC2)c1`, inactive: -3.24%.
For `CN1CCC(Nc2ccc(Cl)cc2)CC1` the value was inactive: 11.6%; for `COc1ccc(C(=O)NCC2(N3CCCCC3)CCCCC2)c(OC)c1OC`, inactive: -0.242%; for `COc1ccc(C(=O)NCC2(N3CCCCC3)CCCCC2)cc1`, inactive: 7.64%.
As for `O=C(NCC1(N2CCCCC2)CCCCC1)c1cccs1`, the figure is inactive: 6.53%; as for `O=C(NCC1(N2CCCCC2)CCCCC1)c1ccc(=O)[nH]c1`, inactive: 6.22%.
Take `Cc1cccc(NC2(C#N)CCN(Cc3ccccc3)CC2)c1`: the activation is inactive: 12.1%.
For `CSc1ccccc1C(=O)NCC1(N2CCCCC2)CCCCC1` the value was inactive: 19.6%.
With `Cc1cc(C)cc(N(C(=O)c2ccccc2)C2CCN(C(=O)OC(C)(C)C)CC2)c1`, the activation is inactive: 15.4%.
For `O=C(NCC1(N2CCCCC2)CCCCC1)c1ccc(Cl)nc1` the value was inactive: 37.6%; for `O=C(NCC1(N2CCOCC2)CCCCC1)c1cc2ccccc2o1`, inactive: -4.25%.
As for `COc1ccc(Cl)cc1C(=O)NCC1(N2CCOCC2)CCCCC1`, the figure is inactive: 4.26%; as for `O=C(NCC1(N2CCCCC2)CCCCC1)c1ccc(Cl)s1`, inactive: 2.36%; as for `N#CC1(Nc2ccccc2)CCN(Cc2ccccc2)CC1`, inactive: 17.3%.
As for `O=C(OC1CN2CCC1CC2)C1c2ccccc2Oc2ccccc21` (stereo not given), the figure is inactive: -10.7%.
On to `CCOC(=O)N1CCC(Nc2ccc(OC)cc2)CC1`, for which the activation was inactive: 21.6%.
As for `O=C1CCN(Cc2ccccc2)CC1`, the figure is inactive: 15.3%; as for `CCOc1ccc(C)cc1CN(CCCl)CCCl`, inactive: -28.1%.
In the case of `COc1ccc(NC2CCN(CCc3ccccc3)CC2)c(OC)c1`, the activation is inactive: 30.1%.
For `CCOC(=O)N1CCC(Nc2ccc(F)cc2)CC1` the value was inactive: 21.9%.
For `O=P1(N(CCCl)CCCl)SCCCS1` the value was inactive: 0.261%.
For `CCCCOc1ccc(C(=O)NCC2(N3CCOCC3)CCCCC2)cc1` the value was inactive: -15.7%; for `O=C(NCC1(N2CCCCC2)CCCCC1)c1ccc(F)cc1`, inactive: 26.5%.
On to `CCOC(=O)N1CCC(Nc2cccc(C)c2)CC1`, for which the activation is inactive: -42.5%.
For `COc1cc(C(=O)NCC2(N(C)C)CCCCC2)ccc1OC(F)F` the value was inactive: -4.36%.
With `O=C(NCC1(N2CCCCC2)CCCCC1)c1ccc(OC(F)F)cc1`, the activation was inactive: 2.04%.
As to `N#CC1(Nc2ccccc2)CCN(CCc2ccccc2)CC1`, the activation was inactive: 16.7%.
For `CCN1CCC(Nc2ccc(Cl)cc2)CC1` the value was inactive: 7.54%.
As for `O=C(NCC1(N2CCCCC2)CCCCC1)c1cccc([N+](=O)[O-])c1`, the figure is inactive: 13.3%; as for `CSc1ccc(C(=O)NCC2(N3CCOCC3)CCCCC2)cc1`, inactive: -5.18%; as for `COc1cc(C(=O)NCC2(N3CCCCC3)CCCCC2)ccc1OC(F)F`, inactive: 1.86%.
As for `O=C(NCC1(N2CCOCC2)CCCCC1)c1cc(=O)[nH]c2ccccc12`, the figure is inactive: -2.58%; as for `CN1CCN(CCOC(=O)C(O)(c2ccccc2)c2ccccc2)CC1`, inactive: 19.8%; as for `CC(C)c1ccc(C(=O)NCC2(N3CCOCC3)CCCCC2)cc1`, inactive: -4.72%.
As to `COc1ccc(NC2CCN(C(=O)OC(C)(C)C)CC2)cc1`, the activation is inactive: -20.9%.
As for `CC(C)c1ccc(NC2CCN(C(=O)OC(C)(C)C)CC2)cc1`, the figure is inactive: -4.39%.
As for `CN(C)c1cccc(C(=O)NCC2(N3CCCCC3)CCCCC2)c1`, the figure is inactive: 24.1%; as for `COc1ccc(CN(CCCl)CCCl)cc1Cl`, inactive: 10.1%.
For `O=C(NCC1(N2CCOCC2)CCCCC1)c1cc(F)c(F)cc1Cl` the value was inactive: -17.2%.
Regarding `COc1cc(OC)c(C(=O)NCC2(N(C)C)CCCCC2)cc1OC`, the activation is inactive: 20.8%.
As for `CN1CCC(Nc2cccc(F)c2)CC1`, the figure is inactive: 14.2%.
As for `O=C(NCC1(N2CCCCC2)CCCCC1)c1cncc(Br)c1`, the figure is inactive: -15.9%; as for `CCCOc1ccc(C(=O)NCC2(N(C)C)CCCCC2)cc1OC`, inactive: -7.26%.
